Assay results reported in paper PMC3897212 (Journal of pharmacokinetics and pharmacodynamics, 2013).
Where two headings read alike, the source gives them in different places. Marks after values point to notes of the source that are not given here.

Experiments:
[1] = Mouse PBPK model of lapatinib; conditions: parameter estimate (CV%) fitted to 60 mg/kg cohort
[2] = Human PBPK model of lapatinib; conditions: human PBPK model parameter
[3] = human plasma, fasted, cited from earlier work

SMILES: CS(=O)(=O)CCNCc1ccc(-c2ccc3ncnc(Nc4ccc(OCc5cccc(F)c5)c(Cl)c4)c3c2)o1 [lapatinib, N-{3-chloro-4-[(3-fluorobenzyl)oxy]phenyl}-6-[5-({[2-(methylsulfonyl)ethyl]amino}methyl)-2-furyl]-4-quinazolinamine]
- Partition coefficient Heart:plasma [1]: 215 (22) Ratio
- Partition coefficient Heart:plasma [2]: 215 Ratio
- Observed t1/2 ([3]; 175 mg multiple dose, healthy, geometric mean): 11.1 ^a (7.3–16.8) h
- Observed t1/2 ([3]; 1,200 mg multiple dose, cancer, median): 16.9 ^b (15.1–34.3) h
- Observed t1/2 ([3]; 1,200 mg single dose, cancer, median): 11.5 ^b (10.1–19.5) h
- Observed t1/2 ([3]; 1,800 mg single dose, cancer, median): 15.7 ^b (11.0–133.1) h
